Reduction of binding in comparison with wild-type p67^phox data for 1 substance are collected here from article PMC3806486.

This assay deals with MYC-tagged p67^phox R38Q (human) (UniProt P19878). In words: co-IP.

Take “GFP-tagged RAC2 (from UniProt P15153 1-192) (natural protein)”: the reduction of binding in comparison with wild-type p67^phox was determined as 51%.
